Results published in patent US10746637B2, “Aldehyde scavenging agent for retrieving elements from fixed tissue” (University of Houston System, priority 2013, dated 2020).

Columns and labels:
GFAP = test: Microscope images of GFAP immunostaining after antigen retrieval (FIGS. 15-18); conditions: figure legends
collagen IV = test: Microscope images of Collagen IV immunostaining after antigen retrieval (FIGS. 13-23); conditions: figure legends

NNc1ccc([N+](=O)[O-])cc1[N+](=O)[O-]
immunostaining of GFAP after antigen retrieval (GFAP): enhanced immunostaining | immunostaining of Collagen IV after antigen retrieval (collagen IV): enhanced immunostaining
